According to PubChem BioAssay AID436 (Emory University Molecular Libraries Screening Center, 2006):
“And” between values parts separate entries of the source, which are not always exact repeats. Equal entries are not always repeated. The list shows a part of the results, in another mix than the full data. The source made the active and inactive calls.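 How the source made its calls: active means activity remaining at or below 50% of control, provided the compound also passes the data quality filters; inactive means the rest, including low values that fail the filters.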

Amino acid sequences for entries named in this document (tags omitted). A change or cut given only in a name is not applied to a line headed by its entry.
UniProt Q92560: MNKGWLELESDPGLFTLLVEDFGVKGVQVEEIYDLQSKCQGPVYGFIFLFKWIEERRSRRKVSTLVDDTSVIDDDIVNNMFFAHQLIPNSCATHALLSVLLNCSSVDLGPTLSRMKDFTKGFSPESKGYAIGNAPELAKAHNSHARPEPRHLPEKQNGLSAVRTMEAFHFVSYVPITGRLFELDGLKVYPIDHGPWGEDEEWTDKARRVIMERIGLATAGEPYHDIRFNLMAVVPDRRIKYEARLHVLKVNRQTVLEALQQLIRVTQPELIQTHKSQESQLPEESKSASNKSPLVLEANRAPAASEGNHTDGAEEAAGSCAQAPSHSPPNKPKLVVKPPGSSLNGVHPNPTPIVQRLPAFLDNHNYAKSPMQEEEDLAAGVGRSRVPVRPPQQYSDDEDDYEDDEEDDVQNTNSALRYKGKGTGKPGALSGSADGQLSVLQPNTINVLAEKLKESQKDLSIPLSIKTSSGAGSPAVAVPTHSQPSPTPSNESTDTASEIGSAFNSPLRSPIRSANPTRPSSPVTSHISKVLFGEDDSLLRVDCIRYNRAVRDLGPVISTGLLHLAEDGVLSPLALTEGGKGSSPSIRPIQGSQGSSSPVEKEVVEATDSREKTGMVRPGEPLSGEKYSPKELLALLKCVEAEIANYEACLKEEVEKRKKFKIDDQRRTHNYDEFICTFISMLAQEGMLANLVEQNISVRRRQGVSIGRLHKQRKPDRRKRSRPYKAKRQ

Each compound was assayed against Ubiquitin carboxyl-terminal hydrolase BAP1 (Homo sapiens) (UniProt Q92560) (assay: inhibitors of BAP1 deubiquitinase, primary screen, biochemical, Ub-AMC fluorescence, kinetic (AID 436;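 further: 100% = DMSO wells rate and 0% = substrate alone blank rate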)). Conditions: recombinant BAP1, Ub-AMC hydrolysis fluorescence kinetic; at 20 µM; hits give low values.

Structure (SMILES)	activity remaining (% of control)
CN(C(=O)Cc1ccc(Cl)c(Cl)c1)[C@H]1CCCC[C@@H]1N1CCCC1	inactive: 94.3% and inactive: 102%
Cc1c2non([O-])c-2c(C)[n+](=O)[n+]1[O-]	inactive: 89%
CCc1nc2c(n1)c1c(non1O)c1c2no[n+]1[O-]	inactive: 96.3%
O=C(OC1CN2CCC1CC2)c1cccc(Cl)c1 (stereo not drawn)	inactive: 101%
O=P(Nc1nccs1)(c1ccccc1)c1ccccc1	inactive: 118%
c1nnnn1CCn1cnnn1	inactive: 68.1%
COc1ccccc1OP(=O)(Nc1ccccn1)Oc1ccccc1OC	inactive: 68.7%
O=P1(Nc2nc3ccc(Cl)cc3s2)COc2ccccc2O1 (stereo not drawn)	inactive: 102%
CN(C(=O)Cc1ccc(Cl)c(Cl)c1)[C@@H]1CCCC[C@@H]1N1CCCC1	inactive: 97.5%
CCOP(=S)(NCC(C)C)OCC	inactive: 56.3%
O=P(Nc1nccs1)(c1ccccc1)c1nc2ccccc2s1 (stereo not drawn)	inactive: 137%
CCOP1(=S)c2c(C)nn(CCC#N)c2N=C(c2ccccc2F)N1C (stereo not drawn)	inactive: 109%
CCOP1(=S)c2c(C)nn(CCC#N)c2N=C(c2ccc(F)cc2)N1C (stereo not drawn)	inactive: 90%
CN(C(=O)Cc1ccccc1)[C@@H]1CC[C@]2(CCCO2)C[C@H]1N1CCCC1	inactive: 91.3%
CN(C(=O)Cc1ccc(Cl)c(Cl)c1)[C@@H]1CC[C@]2(CCCO2)C[C@H]1N1CCCC1	inactive: 90.2%
Cc1cccc(OCC(=O)OC2CN3CCC2CC3)c1 (stereo not drawn)	inactive: 153%
O=P1(Nc2ccccn2)COc2ccccc2OC1	inactive: 103%
CN(CCCl)Cc1cc(Cl)c(NC2=NCCN2)c(Cl)c1	inactive: 91%
Clc1n[nH]nc1-c1nn[nH][15n]1	inactive: 95.4%
CN(C(=O)Cc1ccc(Cl)c(Cl)c1)[C@@H]1CCCC[C@H]1N1CCCC1	inactive: 99.4%
Cc1nn(-c2ccccc2)c2c1P(=O)(N1CCOCC1)N(C)C(c1ccccc1)=N2 (stereo not drawn)	inactive: 109%
O=P1(Nc2ncccn2)COc2ccccc2OC1	inactive: 96.8%
Cc1ccc(OCC(=O)OC2CN3CCC2CC3)cc1 (stereo not drawn)	inactive: 183%
O=P1(Nc2ccc(Br)cn2)COc2ccccc2OC1	inactive: 105%
COP1(=S)c2c(C)nn(CCC#N)c2N=C(c2ccc(F)cc2)N1C (stereo not drawn)	inactive: 112%
O=C(COc1ccccc1)OC1CN2CCC1CC2 (stereo not drawn)	inactive: 96.1%
COP(=O)(OC)C(NC(=O)c1ccc(C)cc1)=C(Cl)Cl	inactive: 164%
O=C(OC1CN2CCC1CC2)C12CC3CC(CC(C3)C1)C2 (stereo not drawn)	inactive: 112%
